{"source": "patent US9029401B2", "about": "(The Regents of the University of California, priority 2011, dated 2015)", "target": "Raf-1 (Homo sapiens (Human), UniProt P04049)", "test": "In vitro kinase inhibition assay (ADP-Glo), Raf-1", "type": "biochemical", "details": "10 nM enzyme, 1 μM MEK1, 10 μM ATP, 22° C., 2 hours", "data": [{"molecule": "CC(C)(C)OC(=O)c1cc(O[C@H]2CC[C@H](NC(=O)Nc3ccc(Cl)c(C(F)(F)F)c3)CC2)ccn1", "note": "[Compound 2280, trans-4-{4-[3-(4-Chloro-3-trifluoromethyl-phenyl)-ureido]-cyclohexyloxy}-pyridine-2-carboxylic acid tert-butyl ester]", "values": [{"measurement": "IC50", "value": "550 ± 50", "unit": "nM"}]}]}
